Drawing on patent US8470871B2, “Ligands that modulate RAR receptors” (Galderma Research & Development, priority 2004, dated 2013), this text covers Kd for nine compounds.

The chains behind the UniProt entries cited, without tags or fusion partners. Residues count along the entry.
UniProt P13631, 185-419 limits assumed: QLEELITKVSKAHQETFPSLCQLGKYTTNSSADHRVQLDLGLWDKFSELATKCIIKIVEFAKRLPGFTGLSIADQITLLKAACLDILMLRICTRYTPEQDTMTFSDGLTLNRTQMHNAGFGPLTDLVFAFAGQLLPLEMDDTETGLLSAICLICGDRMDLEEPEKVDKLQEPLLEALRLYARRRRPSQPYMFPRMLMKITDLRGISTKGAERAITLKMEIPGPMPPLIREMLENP
UniProt P10276, 183-417 limits assumed: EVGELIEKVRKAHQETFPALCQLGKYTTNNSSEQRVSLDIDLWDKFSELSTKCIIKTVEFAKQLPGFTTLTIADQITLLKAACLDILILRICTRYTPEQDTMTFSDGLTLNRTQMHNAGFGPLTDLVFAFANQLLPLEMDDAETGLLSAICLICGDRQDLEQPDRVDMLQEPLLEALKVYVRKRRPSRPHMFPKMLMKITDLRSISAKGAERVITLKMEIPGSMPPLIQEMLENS

Structures are written as SMILES. Structures can show the parent of a compound that is named as a salt.

One test addresses RARgamma (Homo sapiens, UniProt P13631). Nature of the test: Transactivation test (Kdapp), RARgamma. The class given is cell-based. Conditions: HeLa stable transfectants, luciferase reporter, crossed curves against reference agonist, Schild regression. Here is the method: (§1) The activation of receptors with an agonist (activator) in HeLa cells leads to the expression of a reporter gene, luciferase, which, in the presence of a substrate, generates light. The activation of the receptors may thus be measured by quantifying the luminescence produced after incubating the cells in the presence of a reference agonist. The inhibitory products displace the agonist from its site, thus preventing activation of the receptor. The activity is measured by quantifying the reduction in light produced. This measurement makes it possible to determine the inhibitory activity of the compounds according to the invention.
(§2) In this study, a constant is determined which is the affinity of the molecule for the receptor. Since this value can fluctuate depending on the basal activity and the expression of the receptor, it is referred to as the Kd apparent (KdApp).
To determine this constant, “crossed curves” of the test product against a reference agonist, 4-[2-(5,5,8,8-tetramethyl-5,6,7,8-tetrahydro-2-naphthyl)propenyl]benzoic acid, are performed in 96-well plates. The test product is used at 10 concentrations and the reference agonist at 7 concentrations. In each well, the cells are in contact with a concentration of the test product and a concentration of the reference agonist, 4-[2-(5,5,8,8-tetramethyl-5,6,7,8-tetrahydro-2-naphthyl)propenyl]benzoic acid. Measurements are also taken for the total agonist (4-[2-(5,5,8,8-tetramethyl-5,6,7,8-tetrahydro-2-naphthyl)propenyl]benzoic acid) and inverse agonist, 4-{(E)-3-[4-(4-tert-butylphenyl)-5,5,8,8-tetramethyl-5,6,7,8-tetrahydro-2-naphthyl]-3-oxopropenyl}benzoic acid, controls.
The HeLa cell lines used are stable transfectants containing the plasmids ERE-βGlob-Luc-SV-Neo (reporter gene) and RAR (α, β, γ) ER-DBD-puro. These cells are inoculated into 96-well plates at a rate of 10,000 cells per well in 100 μl of DMEM medium without phenol red, and supplemented with 10% defatted calf serum. The plates are then incubated at 37° C. and 7% CO2 for 4 hours.
The plates are then incubated for 18 hours at 37° C. and 7% CO2.
(§3) The culture medium is removed by turning over and 100 μl of a 1:1 PBS/luciferine mixture is added to each well. After 5 minutes, the plates are read using the luminescence reader.
On the technique in general: Reporter assays use an easily measured gene product as a stand-in for the process of interest.

A further test deals with RARalpha (Homo sapiens, UniProt P10276). Nature of the test: Transactivation test (Kdapp), RARalpha. In kind it is cell-based. Conditions: HeLa stable transfectants, luciferase reporter; crossed curves against reference agonist, Schild regression. As to the method: as §1, §2
To determine this constant, “crossed curves” of the test product against a reference agonist, 4-[2-(5,5,8,8-tetramethyl-5,6,7,8-tetrahydro-2-naphthyl)propenyl]benzoic acid, are performed in 96-well plates. The test product is used at 10 concentrations and the reference agonist at 7 concentrations. […]
as §3

With `CCN(C(C)=O)c1ccc(-c2cc(-c3ccc(C(=O)O)cc3)ccc2OCCCCO)cc1C(C)(C)C` [Example 5, 4″-(acetylethylamino)-3″-tert-butyl-4′-(4-hydroxybutoxy)-[1,1′;3′,1″]terphenyl-4-carboxylic acid], at RARgamma, the Kd came out at 0.5 nM.
For the compound `CCc1cc(-c2cc(-c3ccc(C(=O)O)cc3)ccc2OCCO)ccc1N(CC)CC` [Example 13, 4″-diethylamino-3″-ethyl-4′-(2-hydroxyethoxy)-[1,1′;3′,1″]terphenyl-4-carboxylic acid], the Kd at RARgamma was 0.5 nM.
For the compound `CCN(CC)c1ccc(-c2cc(-c3ccc(C(=O)O)cc3)ccc2OCCCO)cc1C` [Example 17, 4″-diethylamino-4′-(3-hydroxypropoxy)-3″-methyl[1,1′;3′,1″]terphenyl-4-carboxylic acid], the Kd on RARgamma stood at 30 nM.
On RARgamma, `CCN(CC)c1ccc(-c2cc(-c3ccc(C(=O)O)cc3)ccc2CCCO)cc1C(C)(C)C` [Example 33, 3″-tert-butyl-4″-diethylamino-4′-(3-hydroxypropyl)-[1,1′;3′,1″]terphenyl-4-carboxylic acid] came in with a Kd of 0.5 nM.
On to `CCN(CC)c1ccc(-c2cc(-c3ccc(C(=O)O)cc3)ccc2CC(O)CO)cc1C(C)(C)C` (stereo not shown) [Example 35, 3″-tert-butyl-4″-diethylamino-4′-(2,3-dihydroxypropyl)-[1,1′;3′,1″]terphenyl-4-carboxylic acid], for which the Kd at RARgamma is 8 nM.
Compound `CCN(C(C)=O)c1ccc(-c2cc(-c3ccc(C(=O)O)cc3)ccc2CCCO)cc1C(C)(C)C` [Example 37, 4″-(acetylethylamino)-3″-tert-butyl-4′-(3-hydroxypropyl)-[1,1′;3′,1″]terphenyl-4-carboxylic acid] had a Kd on RARgamma of 30 nM.
Take `CCN(C(C)=O)c1ccc(-c2cc(-c3ccc(C(=O)O)cc3)ccc2CCCNC2CC2)cc1C(C)(C)C` [Example 47, 4″-(acetylethylamino)-3″-tert-butyl-4′(3-cyclopropylaminopropyl)[1,1′;3′,1″]terphenyl-4-carboxylic acid]: the Kd on RARgamma and at RARalpha was 120 nM each time.
Compound `CCN(CC)c1ccc(-c2cc(-c3ccc(C(=O)O)cc3)ccc2CCCO)cc1C(C)(C)C` [Example 52, [3″-tert-butyl-4-carboxy-4′-(3-hydroxypropyl)-[1,1′;3′,1″]terphenyl-4″-yl]diethylamine hydrochloride] yielded a Kd at RARgamma (hydrochloride) of 0.25 nM.
In turn, `CCNc1ccc(-c2cc(-c3ccc(C(=O)O)cc3)ccc2OCCCO)cc1C(C)(C)C` [Example 54, 3″-tert-butyl-4″-ethylamino-4′-(3-hydroxypropoxy)-[1,1′;3′,1″]terphenyl-4-carboxylic acid] gave a Kd at RARgamma of 0.25 nM.
